substance,measurement,value
Silver-pyrrolidone Carboxylic Acid Complex [silver-PCA],maximum solubility in water,about 300 mM

# — US8877256B2, “Antimicrobial photo-stable coating composition” (Covalon Technologies Ltd., priority 2007, dated 2014)
